# Measurements from US20130310347A1, “MULTI-MODALITY MOLECULAR IMAGING HIGH-THROUGHPUT ASSAY FOR IDENTIFYING HEAT SHOCK PROTEIN 90 (HSP90) INHIBITORS” (The Board of Trustees of the Leland Stanford Junior …, priority 2012, published 2013).
# Legend:
# [1] = logP value (partition coefficient); assay type: physicochemical
# [2] = system: Hsp90 client proteins (phosphorylated/total Akt, Raf-1); assay: Ex vivo western blotting of excised tumors; conditions: western blotting after last imaging time point; p>0.05
# Procedure: To determine if the inhibition of Hsp90(α/β)/p23 interactions also leads to degradation of Hsp90 client proteins in mice, tumors were excised from sacrificed mice after the last PET/CT imaging time point. The expression of phosphorylated/total Akt and Raf-1 in tumor lysates was determined by western blotting. α-tubulin was used as a loading control.
# Mice were euthanized after the last imaging time points and tumors were excised and homogenized in tissue extraction buffer in the presence of HALT® protease and phosphatase inhibitors (all from Pierce, Ill.). Protein concentrations were determined by Biorad Protein Dc assay. The expression of phosphorylated/total Akt, Raf-1 and […] were determined by western blotting as described in Chan et al., (2008) Cancer Res. 68: 216-226. Western blot images were quantitated using NIH Image J, and expressed as the ratio of target protein/α-tubulin for each treatment group.
# Hsp90α/p23 interactions = Hsp90α/p23 interactions (Homo sapiens, UniProt P07900); assay: CP9 analogue evaluation, RL/FL imaging in 293Tα-FG cells
# Procedure: To improve the efficacy of CP9 in disruption of Hsp90(α/β)/p23 interactions in living mice, a structure-activity relationship (SAR) study was performed using 62 structural analogues (10 μM) with different modifications on CP9, as shown in FIGS. 2A-2G, using the 293T(α/β)-FG stable cells. Their effects on Hsp90(α/β)/p23 interactions and cell proliferation were monitored by sequential RL (FIG. 11A) and FL imaging at 24 h. CP9, PU-H71 and 17-AAG were used as positive controls. The net effect on Hsp90(α/β)/p23 interactions was determined by normalizing RL to that of FL signals and to that of carrier control-treated cells (FIG. 11B). […]
# CP9 (0.3-10 μM), 17-AAG (10 μM) and PU-H71 (5 μM) were used as positive controls in triplicate wells. The efficacy of the analogues in disruption of Hsp90(α/β)/p23 and cell proliferation were monitored by RL imaging (2 h post upon addition of ENDUREN® at 30 μM final concentration) followed by FL imaging (10 mins post addition of D-Luc at 0.225 mg/ml final concentration) using a cooled CCD camera (1 min and 10 sec for RL and FL imaging, respectively). […] The effect of the CP9 analogues on degradation of Hsp90 client proteins in 293T cells were also monitored by western blotting as described above.
# 293T cells = assay: Alamar Blue cell proliferation; conditions: 24 h
# Procedure: FIG. 6A is a series of graphs illustrating the effect of CP9 on cell proliferation determined by an Alamar Blue assay. The indicated cancer cell lines were treated with different concentrations of CP9 for 24 h prior to incubation with Alamar blue for 4 h. The Hsp90 inhibitors PU-H71 and 17AAG were used as positive controls. Emissions at 570 nm in CP9-treated cells were normalized to that of carrier control-treated cells. Results are expressed as normalized cell proliferation±S.E.M.
# FIG. 12A is a graph illustrating the effect of A17, CP9 and 17-AAG on proliferation of 293T cells. 293T cells were treated with different concentrations of inhibitors in triplicates for 24 h prior to determination of cell proliferation by Alamar Blue assay. Emission signals were normalized to that of carrier control treated cells and expressed as mean±S.E.M.
# CP9 had no effect on proliferation of normal MEFs. Since CP9 led to decrease in phosphorylated Akt (FIGS. 5A and 10A-10C), it was expected to inhibit glucose metabolism through relief of inhibition of glycogen synthase kinase […] (Nair & Olanow (2008) J. Biol. Chem. M707238200; Dandekar et al., (2007) J. Nucl. Med. 48: 602-607).
smiles,measurement,setting,value
Cc1cc(NC(=O)CSc2nc(-c3ccco3)cc(C(F)(F)F)n2)no1,logP value (partition coefficient),[1],2.8
same,Hsp90 client proteins in excised tumors relative to carrier control,[2],did not lead to significant decreases
same,fold reduction in IC50 for inhibition of Hsp90α/p23 signals compared to CP9,Hsp90α/p23 interactions,3 fold
same,IC50,"Hsp90α/p23 interactions; read-out: IC50 for inhibition of Hsp90α/p23 signals, time- and dose-response curves in 293T-FG cells",150 nM
same,"IC50 for growth inhibition, fold lower than that of CP9",293T cells,about 2 fold
